Earlier results in patent publication US20080261984A1, “Use of S,S-Reboxetine in the Treatment of Pain” (Pfizer Inc., priority 2004, published 2008).

Amino acid sequences for entries named in this document (tags omitted).
UniProt P31645, whole entry: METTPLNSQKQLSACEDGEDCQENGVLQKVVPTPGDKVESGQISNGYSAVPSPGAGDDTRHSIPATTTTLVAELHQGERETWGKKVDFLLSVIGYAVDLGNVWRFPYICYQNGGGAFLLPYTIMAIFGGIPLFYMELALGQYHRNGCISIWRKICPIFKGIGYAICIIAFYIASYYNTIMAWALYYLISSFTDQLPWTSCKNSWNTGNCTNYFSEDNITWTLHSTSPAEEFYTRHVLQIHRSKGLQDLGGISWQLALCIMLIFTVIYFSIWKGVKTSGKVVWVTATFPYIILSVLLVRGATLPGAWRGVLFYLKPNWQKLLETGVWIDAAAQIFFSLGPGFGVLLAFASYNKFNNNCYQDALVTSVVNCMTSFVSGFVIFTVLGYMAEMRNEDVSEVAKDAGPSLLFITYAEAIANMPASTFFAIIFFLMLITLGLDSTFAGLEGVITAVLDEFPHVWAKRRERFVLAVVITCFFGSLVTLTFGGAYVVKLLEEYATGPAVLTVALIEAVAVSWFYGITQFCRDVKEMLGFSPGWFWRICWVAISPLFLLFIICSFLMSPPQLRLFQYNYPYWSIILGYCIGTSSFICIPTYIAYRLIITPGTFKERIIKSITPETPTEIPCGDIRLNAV

Biological target: serotonin reuptake (Homo sapiens, UniProt P31645)
Details: cited from earlier work

In the case of `CCOc1ccccc1O[C@@H](c1ccccc1)[C@@H]1CNCCO1` [(S,S)-reboxetine], the “serotonin reuptake inhibitory activity” value is listed as “only marginal”.
